PubChem BioAssay (NCI)
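48-hour exposure; five concentrations; linearly interpolated endpoints. GI50 is the concentration that inhibits growth by half. Definition used: TGI = concentration required for complete inhibition of growth.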

Legend:
Experiment in all cases: NCI anticancer screen, dose series, 48 h
[1] = test system: OVCAR-3 ovarian
[2] = test system: KM12 colon
[3] = test system: COLO 205 colon
[4] = test system: SK-MEL-2 melanoma
[5] = test system: SK-MEL-5 melanoma
[6] = test system: RXF-631 renal
[7] = test system: DMS 114 small cell lung
[8] = test system: TK-10 renal
[9] = test system: UACC-62 melanoma
[10] = test system: HL-60(TB) leukemia
[11] = test system: NCI-H226 lung
[12] = test system: SF-268 CNS
[13] = test system: NCI-H460 lung
[14] = test system: LOX IMVI melanoma
[15] = test system: CCRF-CEM leukemia
[16] = test system: KM20L2 colon
[17] = test system: SF-539 CNS
[18] = test system: XF 498 CNS
[19] = test system: UO-31 renal
[20] = test system: CAKI-1 renal
[21] = test system: 786-0 renal
[22] = test system: A498 renal
[23] = test system: IGROV1 ovarian
[24] = test system: OVCAR-8 ovarian
[25] = test system: LXFL 529 NSCLC
[26] = test system: MOLT-4 leukemia
[27] = test system: DLD-1 colon
[28] = test system: SNB-75 CNS
[29] = test system: SK-MEL-28 melanoma
[30] = test system: RXF 393 renal
[31] = test system: SF-295 CNS
[32] = test system: U251 CNS
[33] = test system: M14 melanoma
[34] = test system: SNB-19 CNS
[35] = test system: SW-620 colon
[36] = test system: A549 NSCLC
[37] = test system: SN12C renal
[38] = test system: HT29 colon
[39] = test system: HCC-2998 colon
[40] = test system: M19-MEL melanoma
[41] = test system: NCI-H522 lung
[42] = test system: DMS 273 small cell lung
[43] = test system: SNB-78 CNS
[44] = test system: NCI-H322M lung
[45] = test system: HOP-62 NSCLC
[46] = test system: EKVX NSCLC
[47] = test system: HOP-92 NSCLC
[48] = test system: SK-OV-3 ovarian
[49] = test system: UACC-257 melanoma
[50] = test system: RPMI-8226 leukemia
[51] = test system: MALME-3M melanoma
[52] = test system: K-562 leukemia

## Cc1[nH]c2cc([N+](=O)[O-])c([N+](=O)[O-])cc2c1[N+](=O)[O-]
[1]
  GI50: 14.7 µM
  TGI: 46.3 µM
[2]
  GI50: 13.3 µM
  TGI: 49.1 µM
[3]
  GI50: 13.7 µM
  TGI: 28 µM
[4]
  GI50: 16.7 µM
  TGI: 44 µM
[5]
  GI50: 14.4 µM
  TGI: 34.1 µM
[6]
  GI50: 8.94 µM
  TGI: 37.1 µM
[7]
  GI50: 14.4 µM
  TGI: 32.2 µM
[8]
  GI50: 19.4 µM
  TGI: 56 µM
[9]
  GI50: 14.7 µM
  TGI: 43.3 µM
[10]
  GI50: 13.5 µM
  TGI: 50 µM
[11]
  GI50: 20.7 µM
  TGI: 52.5 µM
[12]
  GI50: 31.7 µM
  TGI: > 100 µM
[13]
  GI50: 21.4 µM
  TGI: > 100 µM
[14]
  GI50: 23.9 µM
  TGI: 95.8 µM
[15]
  GI50: 15.6 µM
  TGI: 59.6 µM
[16]
  GI50: 23 µM
  TGI: 71.6 µM
[17]
  GI50: 12.3 µM
  TGI: 52.5 µM
[18]
  GI50: 18.1 µM
  TGI: 48.1 µM
[19]
  GI50: 13.8 µM
  TGI: 36.6 µM
[20]
  GI50: 18.5 µM
  TGI: 72.2 µM
[21]
  GI50: 20.6 µM
  TGI: 86 µM
[22]
  GI50: 14.6 µM
  TGI: 44.4 µM
[23]
  GI50: 28.1 µM
  TGI: 87.4 µM
[24]
  GI50: 25.6 µM
  TGI: 82 µM
[25]
  GI50: 12.9 µM
  TGI: 28.9 µM
[26]
  GI50: 15.3 µM
  TGI: 45.8 µM
[27]
  GI50: 24.9 µM
  TGI: 77.5 µM
[28]
  GI50: 9.98 µM
  TGI: 43.2 µM
[29]
  GI50: 18.6 µM
  TGI: 60.9 µM
[30]
  GI50: 17.3 µM
  TGI: 59.3 µM
[31]
  GI50: 9.64 µM
  TGI: 40.2 µM
[32]
  GI50: 14.7 µM
  TGI: 69 µM
[33]
  GI50: 16.7 µM
  TGI: 40.2 µM
[34]
  GI50: 15.2 µM
  TGI: 77.8 µM
[35]
  GI50: 24 µM
  TGI: 71.1 µM
[36]
  GI50: 19.4 µM
  TGI: 82.4 µM
[37]
  GI50: 22.2 µM
  TGI: > 100 µM
[38]
  GI50: 17.5 µM
  TGI: 51.9 µM
[39]
  GI50: 15.4 µM
  TGI: 30 µM
[40]
  GI50: 20.1 µM
  TGI: 66.7 µM
[41]
  GI50: 8.91 µM
  TGI: 26.7 µM
[42]
  GI50: 16.2 µM
  TGI: 43.4 µM
[43]
  GI50: 13.3 µM
  TGI: 61.4 µM
[44]
  GI50: 12.8 µM
  TGI: 39.3 µM
[45]
  GI50: 21.4 µM
  TGI: 51.5 µM
[46]
  GI50: 30.2 µM
  TGI: 84.1 µM
[47]
  GI50: 3.53 µM
  TGI: 20.1 µM
[48]
  GI50: 22.2 µM
  TGI: 56.3 µM
[49]
  GI50: 16.3 µM
  TGI: 56.2 µM
[50]
  GI50: 2.86 µM
  TGI: 27.5 µM
[51]
  GI50: 14.6 µM
  TGI: 37.5 µM
[52]
  GI50: 13.5 µM
  TGI: 60 µM
